One may read the Ki as a measure of affinity in units of concentration, obtained from inhibition or displacement.

The chains behind the UniProt entries cited, without tags or fusion partners.
UniProt P21554, whole entry: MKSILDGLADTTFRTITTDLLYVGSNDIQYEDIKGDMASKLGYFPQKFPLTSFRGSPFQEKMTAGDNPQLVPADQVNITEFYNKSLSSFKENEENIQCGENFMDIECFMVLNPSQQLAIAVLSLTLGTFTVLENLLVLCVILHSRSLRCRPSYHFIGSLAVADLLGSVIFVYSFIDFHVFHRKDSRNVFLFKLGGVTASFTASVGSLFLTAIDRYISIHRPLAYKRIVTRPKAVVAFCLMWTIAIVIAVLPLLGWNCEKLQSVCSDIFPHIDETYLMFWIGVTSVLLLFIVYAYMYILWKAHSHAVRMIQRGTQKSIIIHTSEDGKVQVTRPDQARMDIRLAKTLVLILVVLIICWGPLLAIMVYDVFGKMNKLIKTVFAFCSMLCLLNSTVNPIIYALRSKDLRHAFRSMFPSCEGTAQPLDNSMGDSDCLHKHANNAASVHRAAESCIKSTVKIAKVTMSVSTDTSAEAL

The target of this assay is human recombinant CB1 receptor (Homo sapiens, UniProt P21554). The assay can be described thus: Competition binding assay, displacement of [3H]-CP-55,940, CB1R. The settings on record: membranes from HEK cells, mean ± SD, at least three experiments in duplicate. On the procedure:
Binding at equilibrium was performed as previously reported. […] All compounds were tested following the procedure described by the manufacturer (Perkin Elmer, Italy). […] Ki values were calculated by applying the Cheng–Prusoff equation to the IC50 values (obtained by GraphPad) for the displacement of the bound radioligand by increasing concentrations of the test compound.

For `Cn1cc2c(n1)c(O)c(C(=O)NC13CC4CC(CC(C4)C1)C3)c(=O)n2Cc1ccccc1` [Compound 26, N-(Adamantan-1-yl)-4-benzyl-7-hydroxy-2-methyl-5-oxo-4,5-dihydro-2H-pyrazolo[4,3-b]pyridine-6-carboxamide], the Ki turned out to be 0.116 ± 0.0237 µM.

For the origin of these results see PMC10343475, “Systematic Modification of the Substitution Pattern of the 7-Hydroxy-5-oxopyrazolo[4,3-b]pyridine-6-carboxamide Scaffold Enabled the Discovery of New Ligands with High Affinity and Selectivity for the Cannabinoid Type 2 Receptor” (Molecules, 2023).
